On this data set, the source says:
If the material precipitates upon cooling or was to some extent insoluble, the insoluble material was separated by filtration, dried and weighed.

The record followed here is US9650405B2, “Modified sophorolipids as oil solubilizing agents” (Polytechnic Institute of New York University, priority 2010, dated 2017).

By Solubility is commonly meant the concentration that dissolves in the medium under given conditions. Lower therefore signals little dissolved substance.

On to Natural Sophorolipids [Compound 1], for which the Solubility was <10000 µg/mL.
